# Measured affinities in a library of Ab-14 heavy chain variants

Source: Engelhart et al. 2022 (doi:10.1038/s41597-022-01779-4), MIT Lincoln Laboratory and A-Alpha Bio; data file from the FLAb repository.

Antigen: PDVDLGDISGINAS, a 14-residue peptide of the SARS-CoV-2 spike HR2 region.

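The parent was found by panning a naive human phage display library on the peptide. Library AAYL49 holds single substitutions and randomly drawn double and triple substitutions in the CDRs. Affinity was read by AlphaSeq, a pooled yeast mating assay with surface-displayed partners. Pairs that bind mate more often; barcode pairs of the diploids are counted by sequencing. A regression on co-assayed BCL2-family reference pairs converts the normalised counts of each replicate to an apparent Kd. Each pool was mated in three replicate cultures.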

Parent scFv Ab-14: VH joined to VL by the linker GGGGSGGGGSGGGGS. Changes lie in the heavy chain CDRs alone.
VH: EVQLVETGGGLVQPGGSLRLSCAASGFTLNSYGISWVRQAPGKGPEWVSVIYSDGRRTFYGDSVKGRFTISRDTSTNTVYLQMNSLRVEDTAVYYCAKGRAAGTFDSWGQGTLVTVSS
VL: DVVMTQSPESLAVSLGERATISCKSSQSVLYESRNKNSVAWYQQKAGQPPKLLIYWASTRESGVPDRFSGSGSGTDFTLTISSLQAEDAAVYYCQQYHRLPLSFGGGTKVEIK

Positions count from residue 1 of the parent VH; S53C puts C in place of S.
Every variant below is changed at D62 of the VH (sequential numbering).
Kd is apparent (estimated from mating counts) and averaged on the log scale over replicates with a signal. Smaller is tighter.
"no signal" marks a missing value. The strain was present, yet no cells mated with the target were sequenced in any replicate, which points to weak or no binding.
Background: pairings of library AAYL49 with three empty control strains gave a value in 15% of cases (median 11 µM, 5th percentile 680 nM). Values in that range, when seen in few replicates, are hard to tell from nonspecific mating. Also given: how often the same scFv was detected with the empty control strains.

For S53C/D62H/G99E, the assay gave no signal (0 of 3 replicates; controls 2 of 9). Variant T58G/D62N/A101C showed 510 nM (1 of 3 replicates; controls 1 of 9). With I51P/F59S/D62Y the result was no signal (0 of 3 replicates; controls 2 of 9). Variant I34R/D62Q/T104A gave 34 µM (1 of 3 replicates; controls 3 of 9). Variant Y32P/G33D/D62I showed no signal (0 of 3 replicates; controls 0 of 9). Variant I51W/D62M/D106F showed no signal (0 of 3 replicates; controls 0 of 9).

For I51M/D62A/T104P, the assay gave no signal (0 of 3 replicates; controls 0 of 9). Variant D62Q showed 360 nM (3 of 3 replicates; controls 1 of 9). With N30A/R56K/D62L the result was 190 nM (3 of 3 replicates; controls 0 of 9). For D62G, the assay gave 3.4 µM (3 of 3 replicates; controls 0 of 9). Variant F27P/S53F/D62M showed no signal (0 of 3 replicates; controls 1 of 9). With V50K/D62A/S63I the result was no signal (0 of 3 replicates; controls 0 of 9).

With Y52D/F59G/D62S the result was 99 µM (3 of 3 replicates; controls 1 of 9). For D62Y/R100Q, the assay gave 150 nM (3 of 3 replicates; controls 0 of 9). Variant Y60A/D62W/A101S showed 8.7 µM (2 of 3 replicates; controls 4 of 9). Variant R56S/D62S/A102S showed 1.7 µM (3 of 3 replicates; controls 5 of 9). Variant L29T/R56L/D62V showed no signal (0 of 3 replicates; controls 0 of 9). For G26K/R56Q/D62C, the assay gave no signal (0 of 3 replicates; controls 0 of 9).

For N30E/Y32A/D62P, the assay gave 14 µM (1 of 3 replicates; controls 2 of 9). With I51K/D54E/D62C the result was no signal (0 of 3 replicates; controls 0 of 9). For D62M/A101Q/G103I, the assay gave no signal (0 of 3 replicates; controls 1 of 9). For L29S/D62S/T104C, the assay gave no signal (0 of 3 replicates; controls 2 of 9). Variant S53F/D62M/G103A gave no signal (0 of 3 replicates; controls 1 of 9). With S35Y/F59C/D62F the result was 26 nM (3 of 3 replicates; controls 0 of 9).

For S53E/D62K/R100Y, the assay gave 1.8 µM (1 of 3 replicates; controls 0 of 9). With D62A/G99P/R100T the result was no signal (0 of 3 replicates; controls 1 of 9). For Y32R/D62L/S63R, the assay gave 660 nM (1 of 3 replicates; controls 0 of 9). With T28S/D62S/V64C the result was 77 nM (3 of 3 replicates; controls 2 of 9). For I34Y/D62H/K65R, the assay gave 14 µM (1 of 3 replicates; controls 4 of 9). Variant T28R/N30D/D62C gave no signal (0 of 3 replicates; controls 1 of 9).

With Y32K/D62E/S107W the result was no signal (0 of 3 replicates; controls 0 of 9). Variant L29Y/D54I/D62Q showed 77 µM (2 of 3 replicates; controls 2 of 9). For Y32F/I34M/D62K, the assay gave 1.1 µM (1 of 3 replicates; controls 2 of 9). For G55F/Y60K/D62H, the assay gave 660 nM (1 of 3 replicates; controls 0 of 9). Variant I34M/G61R/D62H showed no signal (0 of 3 replicates; controls 0 of 9). Variant Y32A/D62V gave no signal (0 of 3 replicates; controls 0 of 9).

For G26Y/D62A, the assay gave 3.1 µM (1 of 3 replicates; controls 0 of 9). Variant R57C/D62N/T104W showed no signal (0 of 3 replicates; controls 1 of 9). Variant V50I/D62F/A101I gave 16 µM (3 of 3 replicates; controls 7 of 9). For Y32T/G61S/D62F, the assay gave no signal (0 of 3 replicates; controls 2 of 9). Variant S35F/D54V/D62V showed no signal (0 of 3 replicates; controls 1 of 9). Variant S53W/D62Q showed 420 nM (3 of 3 replicates; controls 3 of 9).

Variant R56M/D62R/A102G showed 250 nM (1 of 3 replicates; controls 0 of 9). Variant Y52K/D62V/F105C showed no signal (0 of 3 replicates; controls 1 of 9). Variant G55R/R56V/D62N gave 3.4 µM (1 of 3 replicates; controls 0 of 9). With I51R/T58G/D62W the result was no signal (0 of 3 replicates; controls 0 of 9). For I34Y/D62M/V64E, the assay gave no signal (0 of 3 replicates; controls 0 of 9). For G26T/I34P/D62L, the assay gave no signal (0 of 3 replicates; controls 0 of 9).

For reference, 6 entries of the list once more:

{"changes": "S35Y/F59C/D62F", "Kd": "26 nM", "replicates with signal": "3 of 3", "empty controls": "0 of 9"}
{"changes": "V50K/D62A/S63I", "Kd": "no signal", "replicates with signal": "0 of 3", "empty controls": "0 of 9"}
{"changes": "S53C/D62H/G99E", "Kd": "no signal", "replicates with signal": "0 of 3", "empty controls": "2 of 9"}
{"changes": "I51W/D62M/D106F", "Kd": "no signal", "replicates with signal": "0 of 3", "empty controls": "0 of 9"}
{"changes": "Y32T/G61S/D62F", "Kd": "no signal", "replicates with signal": "0 of 3", "empty controls": "2 of 9"}
{"changes": "F27P/S53F/D62M", "Kd": "no signal", "replicates with signal": "0 of 3", "empty controls": "1 of 9"}